Among the data in patent US11161864B2, “Sting agonists” (Venenum Biodesign, LLC, priority 2018, dated 2021) are IC50 values, retold here.

By UniProt entry, the sequences of proteins in these tests, tags left out. Residues count along the entry.
UniProt Q86WV6, 155-379 H232R: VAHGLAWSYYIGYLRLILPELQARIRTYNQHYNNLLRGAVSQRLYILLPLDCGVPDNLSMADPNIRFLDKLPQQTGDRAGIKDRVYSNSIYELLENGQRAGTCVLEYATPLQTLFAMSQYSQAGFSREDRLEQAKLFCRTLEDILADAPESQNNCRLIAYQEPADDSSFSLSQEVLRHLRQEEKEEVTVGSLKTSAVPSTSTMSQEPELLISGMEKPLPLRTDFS
UniProt Q86WV6, 155-379 G230A/H232R/R293Q: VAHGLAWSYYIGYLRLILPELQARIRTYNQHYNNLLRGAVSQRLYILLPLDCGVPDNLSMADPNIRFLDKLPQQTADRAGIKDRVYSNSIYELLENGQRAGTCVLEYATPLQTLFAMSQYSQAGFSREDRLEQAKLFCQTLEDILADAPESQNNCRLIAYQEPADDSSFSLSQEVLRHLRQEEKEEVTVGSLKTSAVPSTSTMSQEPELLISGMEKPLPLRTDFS
UniProt Q3TBT3, 154-378: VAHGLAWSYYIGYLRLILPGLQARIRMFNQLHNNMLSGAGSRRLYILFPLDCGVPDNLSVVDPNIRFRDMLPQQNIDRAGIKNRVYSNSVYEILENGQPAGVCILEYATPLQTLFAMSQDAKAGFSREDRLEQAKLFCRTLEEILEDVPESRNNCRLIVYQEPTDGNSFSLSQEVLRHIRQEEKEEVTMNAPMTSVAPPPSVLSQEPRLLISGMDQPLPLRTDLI

pIC50: −log10 of the molar value. Bounds are passed on as bounds.

Assay [1] concerns the target wild-type (WT) truncated human STING protein, amino acids 155-379 (Homo sapiens (Human), UniProt Q86WV6, H232R). The experiment in a line: Human WT STING [3H] 2′,3′-cGAMP scintillation proximity competition binding assay. From the text: (§1) A human STING [^3H] 2′,3′-cGAMP scintillation proximity competition binding assay was utilized to detect binding of compounds to STING protein. […] The protein encoding plasmid contained a HIS tag, followed by an Avi tag and then a SUMO tag, which were followed by the STING coding sequence within the pET-28a (+) vector. The plasmid was transfected into a BL21 (DE3)/BirA E. coli co-expression strain. Protein was purified from the bacterial lysate using a cobalt-affinity column. The purified protein was dialyzed against PBS and then 20% glycerol was added prior to storage at −80° C.
(§2) 2′,3′-cGAMP in assay buffer (50 mM Tris pH 7.5, 100 mM NaCl, 0.1% Fatty Acid Free BSA). Test compounds (2.5 μL) were added to the plate first followed by a 25 μL mixture of STING protein, streptavidin PVT SPA beads (Perkin Elmer) and 10 μL [^3H] 2′,3′-cGAMP. Plates were incubated at room temperature for 18 hrs and read on a Wallac MicroBeta TriLux (Perkin Elmer).
Background: Scintillation proximity formats need no separation of bound from free tracer.

In assay [2] the target is AQ variant of truncated human STING protein, amino acids 155-379 (Homo sapiens (Human), UniProt Q86WV6, G230A/H232R/R293Q). The experiment in a line: Human AQ STING [3H] 2′,3′-cGAMP scintillation proximity competition binding assay.
Excerpt: as §1, §2

The target in assay [3] is murine STING protein (amino acids 154-378) (Mus musculus (Mouse), UniProt Q3TBT3). As to the kind of experiment: Murine STING [3H] 2′,3′-cGAMP scintillation proximity competition binding assay.

One may read the pIC50 as the negative decadic logarithm of the IC50, by convention in mol/L. A higher pIC50 goes with a small IC50. Turning to `Nc1nc2c(ncn2[C@@H]2O[C@@H]3COP(=O)(S)OCCn4c(nc5c(=O)[nH]cnc54)COP(=O)(S)O[C@@H]2[C@@H]3F)c(=O)[nH]1` (single isomer, unassigned) [Example 3B], the pIC50 in assay [1] and in assay [2] was 4.00 to 5.00 in each case.
On to `Nc1nc2c(ncn2[C@@H]2O[C@@H]3COP(=O)(S)OCCn4c(nc5cnc(C6CC6)nc54)COP(=O)(S)O[C@@H]2[C@@H]3F)c(=O)[nH]1` (single isomer, unassigned) [Example 12C], for which the pIC50 in assay [1] was 4.00 to 5.00; in assay [2] it was 5.00 to 6.00.
With `Nc1nc2c(ncn2[C@@H]2O[C@@H]3COP(=O)(S)OCC(F)(F)Cn4c(nc5cncnc54)COP(=O)(S)O[C@@H]2[C@@H]3F)c(=O)[nH]1` (single isomer, unassigned) [Example 19C], the pIC50 in assay [1] was 4.00 to 5.00; in assay [2], 5.00 to 6.00.
For `Nc1nc2c(ncn2[C@@H]2O[C@@H]3COP(=O)(S)OCCn4c(nc5cncnc54)COP(=O)(S)O[C@@H]2C3)c(=O)[nH]1` (single isomer, unassigned) [Example 22B], the pIC50 in assay [1] and in assay [2] was 4.00 to 5.00 each time.
Regarding `Nc1nc2c(nnn2[C@@H]2O[C@@H]3COP(=O)(S)OCCn4c(nc5cncnc54)COP(=O)(S)O[C@@H]2[C@@H]3F)c(=O)[nH]1` (single isomer, unassigned) [Example 24B], the pIC50 in assay [1] and in assay [2] was 4.00 to 5.00 throughout.
Turning to `Nc1nc2c(ncn2[C@@H]2O[C@@H]3COP(=O)(S)OCCn4nc(-c5ccncc5)nc4COP(=O)(S)O[C@@H]2[C@@H]3F)c(=O)[nH]1` (single isomer, unassigned) [Example 34B], the pIC50 in assay [1] and in assay [2] was 4.00 to 5.00 each time.
For `N#Cc1cnc2c(c1)nc1n2CCOP(=O)(S)OC[C@H]2O[C@@H](n3cnc4c(=O)[nH]c(N)nc43)[C@H](OP(=O)(S)OC1)[C@@H]2F` (single isomer, unassigned) [Example 38C], the pIC50 in assay [1] and in assay [2] was more than 6.00 throughout.
In assay [2], `N#Cc1cnc2c(c1)nc1n2CCOP(=O)(S)OC[C@H]2O[C@@H](n3cnc4c(=O)[nH]c(N)nc43)[C@H](OP(=O)(S)OC1)[C@@H]2F` (single isomer, unassigned) [Example 38D] showed a pIC50 of more than 6.00.
Turning to `Nc1nc2c(nc3n2CCOP(=O)(S)OC[C@H]2O[C@@H](n4cnc5c(N)ncnc54)[C@H](OP(=O)(S)OC3)[C@@H]2F)c(=O)[nH]1` (stereo partly drawn) [Example 23B, (1S,21R,23R,24R)-11-Amino-23-(6-amino-9H-purin-9-yl)-24-fluoro-3,18-disulfanyl-2,4,17,19,22-pentaoxa-7,10,12,14-tetraaza-3lambda5,18lambda5-diphosphatetracyclo[19.2.1.06,14.08,13]tetracosa-6,8(13),11-triene-3,9,18-trione], the pIC50 was 4.00 to 5.00 in assay [1], 4.00 to 5.00 in assay [2] and 5.00 to 6.00 in assay [3].
